From ChEMBL document CHEMBL2176912, “Diphenyl purine derivatives as peripherally selective cannabinoid receptor 1 antagonists” (J Med Chem, 2012)

The chains behind the UniProt entries cited, without tags or fusion partners.
UniProt P21554, whole entry: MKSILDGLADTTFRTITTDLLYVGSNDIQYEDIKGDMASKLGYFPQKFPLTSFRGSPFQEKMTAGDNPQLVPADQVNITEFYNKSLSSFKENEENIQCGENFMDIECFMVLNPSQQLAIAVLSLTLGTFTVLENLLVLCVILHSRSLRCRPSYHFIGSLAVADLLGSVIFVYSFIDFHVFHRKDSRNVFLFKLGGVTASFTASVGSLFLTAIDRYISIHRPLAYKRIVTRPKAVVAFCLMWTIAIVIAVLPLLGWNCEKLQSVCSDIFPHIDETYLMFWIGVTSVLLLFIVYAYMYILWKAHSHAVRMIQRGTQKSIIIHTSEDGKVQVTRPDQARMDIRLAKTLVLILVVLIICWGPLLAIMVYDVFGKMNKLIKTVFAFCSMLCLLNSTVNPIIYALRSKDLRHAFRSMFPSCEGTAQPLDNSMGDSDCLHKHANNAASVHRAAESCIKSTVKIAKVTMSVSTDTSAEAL

Target: Cannabinoid receptor 1 (Homo sapiens, UniProt P21554)
Experiment: Antagonist activity at human CB1 receptor transfected in CHO-K1 cells co-expressing Galphaq16 assessed as intracellular calcium mobilization using Calcein-4 AM by fluorescence assay
Type: functional, cell-based
Outline: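 CHO-K1 cells engineered to coexpress human CB1 and Gαq16. Calcium flux read with fluorescent dye Calcein-4 AM on a plate reader. Antagonism measured as rightward shift of the CP55940 concentration–response curve. Ke = [ligand]/(DR−1), where DR is the ratio of CP55940 EC50 with and without test agent. Values are averages of 3–6 measurements.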

SMILES | Ke [µM]
CC(C)(C)OC(=O)N1CCC[C@H](Nc2ncnc3c2nc(-c2ccccc2Cl)n3-c2ccc(Cl)cc2)C1 | 3.93
CC(C)(C)OC(=O)N1CCC[C@@H](Nc2ncnc3c2nc(-c2ccccc2Cl)n3-c2ccc(Cl)cc2)C1 | 0.326
Clc1ccc(-n2c(-c3ccccc3Cl)nc3c(N[C@@H]4CCCNC4)ncnc32)cc1 | 5.55
Clc1ccc(-n2c(-c3ccccc3Cl)nc3c(N[C@H]4CCCNC4)ncnc32)cc1 | 8.41
